Assay results reported in ChEMBL document CHEMBL5523766 (J Med Chem, 2024).

By UniProt entry, the sequences of proteins in these tests, tags left out. Where a name states a change or a piece, a line headed by the entry shows the natural chain unless it says otherwise.
UniProt P06239: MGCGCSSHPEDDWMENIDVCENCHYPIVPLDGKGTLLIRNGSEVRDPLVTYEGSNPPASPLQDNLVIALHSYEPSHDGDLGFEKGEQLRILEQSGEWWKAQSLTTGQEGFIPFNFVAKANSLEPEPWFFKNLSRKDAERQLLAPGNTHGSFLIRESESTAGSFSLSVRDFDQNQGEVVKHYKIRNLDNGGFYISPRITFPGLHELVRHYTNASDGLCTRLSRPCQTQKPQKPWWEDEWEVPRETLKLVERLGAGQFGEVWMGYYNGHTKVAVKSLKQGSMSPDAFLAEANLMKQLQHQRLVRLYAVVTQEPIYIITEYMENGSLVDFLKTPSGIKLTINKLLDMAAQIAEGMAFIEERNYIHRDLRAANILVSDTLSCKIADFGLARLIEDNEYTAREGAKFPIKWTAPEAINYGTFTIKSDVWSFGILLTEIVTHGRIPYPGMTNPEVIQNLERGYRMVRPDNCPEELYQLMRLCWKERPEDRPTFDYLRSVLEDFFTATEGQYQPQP
UniProt Q06187: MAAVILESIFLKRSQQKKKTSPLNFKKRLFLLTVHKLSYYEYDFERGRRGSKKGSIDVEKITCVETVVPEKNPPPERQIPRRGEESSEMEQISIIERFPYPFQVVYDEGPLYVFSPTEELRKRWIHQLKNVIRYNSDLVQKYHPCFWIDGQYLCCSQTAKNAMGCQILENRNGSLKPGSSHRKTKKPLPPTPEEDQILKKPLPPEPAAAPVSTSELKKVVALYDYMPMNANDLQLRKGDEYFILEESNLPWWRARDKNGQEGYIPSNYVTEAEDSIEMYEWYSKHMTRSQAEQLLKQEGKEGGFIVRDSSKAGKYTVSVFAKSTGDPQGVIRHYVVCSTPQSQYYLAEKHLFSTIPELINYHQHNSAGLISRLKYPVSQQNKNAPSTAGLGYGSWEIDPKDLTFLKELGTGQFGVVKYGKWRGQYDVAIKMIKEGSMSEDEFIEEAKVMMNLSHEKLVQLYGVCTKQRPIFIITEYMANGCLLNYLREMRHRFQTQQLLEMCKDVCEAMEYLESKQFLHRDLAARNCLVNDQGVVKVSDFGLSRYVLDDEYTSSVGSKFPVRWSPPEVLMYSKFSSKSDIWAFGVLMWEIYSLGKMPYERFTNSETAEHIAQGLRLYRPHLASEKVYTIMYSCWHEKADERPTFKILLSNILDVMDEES
UniProt Q9NWZ3, whole entry: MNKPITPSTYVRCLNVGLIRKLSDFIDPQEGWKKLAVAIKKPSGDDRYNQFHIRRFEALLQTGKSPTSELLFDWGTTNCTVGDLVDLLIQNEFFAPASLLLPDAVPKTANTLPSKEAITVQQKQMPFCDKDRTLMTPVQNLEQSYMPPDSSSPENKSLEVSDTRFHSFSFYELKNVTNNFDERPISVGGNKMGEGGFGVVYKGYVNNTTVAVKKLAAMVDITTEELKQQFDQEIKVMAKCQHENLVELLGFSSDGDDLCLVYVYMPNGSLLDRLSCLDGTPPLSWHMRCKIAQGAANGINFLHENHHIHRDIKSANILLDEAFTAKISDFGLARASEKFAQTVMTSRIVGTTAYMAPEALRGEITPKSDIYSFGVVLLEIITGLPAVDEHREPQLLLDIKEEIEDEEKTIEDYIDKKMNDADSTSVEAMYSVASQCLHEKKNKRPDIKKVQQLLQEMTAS
UniProt Q96GD4, whole entry: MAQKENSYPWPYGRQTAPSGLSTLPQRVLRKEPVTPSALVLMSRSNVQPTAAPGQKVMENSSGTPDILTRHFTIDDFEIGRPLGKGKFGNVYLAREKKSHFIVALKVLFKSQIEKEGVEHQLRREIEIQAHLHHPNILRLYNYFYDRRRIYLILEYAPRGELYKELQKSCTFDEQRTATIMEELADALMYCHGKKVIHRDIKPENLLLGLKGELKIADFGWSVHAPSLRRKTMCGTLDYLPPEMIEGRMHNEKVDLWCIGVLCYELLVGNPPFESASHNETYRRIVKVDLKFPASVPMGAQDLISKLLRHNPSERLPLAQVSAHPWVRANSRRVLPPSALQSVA
UniProt P23458: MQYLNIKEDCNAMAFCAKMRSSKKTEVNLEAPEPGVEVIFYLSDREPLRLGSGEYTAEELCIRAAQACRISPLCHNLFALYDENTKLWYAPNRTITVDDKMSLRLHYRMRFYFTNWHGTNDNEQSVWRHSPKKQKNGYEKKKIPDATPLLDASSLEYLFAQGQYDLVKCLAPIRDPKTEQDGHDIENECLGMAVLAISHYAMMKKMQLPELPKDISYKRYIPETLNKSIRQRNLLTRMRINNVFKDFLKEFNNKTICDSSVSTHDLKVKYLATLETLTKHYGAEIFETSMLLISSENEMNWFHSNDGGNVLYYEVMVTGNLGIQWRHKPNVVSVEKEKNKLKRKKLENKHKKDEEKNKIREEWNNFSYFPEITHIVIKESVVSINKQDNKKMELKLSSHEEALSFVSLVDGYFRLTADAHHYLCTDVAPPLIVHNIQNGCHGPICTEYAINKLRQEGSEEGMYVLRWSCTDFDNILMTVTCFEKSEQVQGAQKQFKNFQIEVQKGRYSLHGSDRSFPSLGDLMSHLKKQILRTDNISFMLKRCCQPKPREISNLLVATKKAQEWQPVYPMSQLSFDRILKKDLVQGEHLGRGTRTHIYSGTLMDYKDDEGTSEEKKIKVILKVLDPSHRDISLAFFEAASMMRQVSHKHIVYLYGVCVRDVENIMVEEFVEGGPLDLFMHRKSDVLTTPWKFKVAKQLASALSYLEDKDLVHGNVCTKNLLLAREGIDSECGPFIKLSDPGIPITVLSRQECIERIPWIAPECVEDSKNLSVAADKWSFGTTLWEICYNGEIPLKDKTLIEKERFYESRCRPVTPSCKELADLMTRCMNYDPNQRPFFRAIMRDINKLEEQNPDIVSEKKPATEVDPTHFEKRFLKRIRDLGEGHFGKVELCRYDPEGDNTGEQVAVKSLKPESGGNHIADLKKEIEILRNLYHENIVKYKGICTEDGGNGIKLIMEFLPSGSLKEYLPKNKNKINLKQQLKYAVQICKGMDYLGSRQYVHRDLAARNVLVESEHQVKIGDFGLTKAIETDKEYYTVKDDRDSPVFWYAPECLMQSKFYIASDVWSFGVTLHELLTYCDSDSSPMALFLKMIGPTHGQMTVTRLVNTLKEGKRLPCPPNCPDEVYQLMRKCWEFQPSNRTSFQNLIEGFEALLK
UniProt P54646: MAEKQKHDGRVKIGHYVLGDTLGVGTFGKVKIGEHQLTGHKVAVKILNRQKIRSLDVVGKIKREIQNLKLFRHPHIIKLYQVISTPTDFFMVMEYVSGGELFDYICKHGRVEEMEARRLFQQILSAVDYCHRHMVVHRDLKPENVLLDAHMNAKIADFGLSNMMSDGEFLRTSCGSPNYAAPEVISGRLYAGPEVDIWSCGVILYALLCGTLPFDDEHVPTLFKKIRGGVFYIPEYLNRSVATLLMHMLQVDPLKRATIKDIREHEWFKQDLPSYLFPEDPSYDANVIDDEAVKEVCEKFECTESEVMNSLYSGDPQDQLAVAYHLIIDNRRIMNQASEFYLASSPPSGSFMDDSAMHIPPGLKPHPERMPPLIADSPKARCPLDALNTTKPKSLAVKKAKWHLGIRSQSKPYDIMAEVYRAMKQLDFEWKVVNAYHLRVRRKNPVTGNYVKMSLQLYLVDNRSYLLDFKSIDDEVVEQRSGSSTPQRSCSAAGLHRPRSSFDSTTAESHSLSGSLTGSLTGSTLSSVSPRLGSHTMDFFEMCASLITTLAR
UniProt P54619: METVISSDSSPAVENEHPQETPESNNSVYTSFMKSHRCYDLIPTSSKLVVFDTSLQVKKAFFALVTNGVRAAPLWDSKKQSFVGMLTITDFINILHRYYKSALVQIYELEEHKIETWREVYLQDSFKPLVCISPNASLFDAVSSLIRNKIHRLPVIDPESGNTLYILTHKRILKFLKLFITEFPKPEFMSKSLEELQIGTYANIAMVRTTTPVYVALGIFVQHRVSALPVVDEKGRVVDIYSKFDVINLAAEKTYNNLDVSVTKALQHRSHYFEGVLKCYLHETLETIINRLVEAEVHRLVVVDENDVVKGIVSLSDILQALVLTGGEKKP
UniProt Q9Y478: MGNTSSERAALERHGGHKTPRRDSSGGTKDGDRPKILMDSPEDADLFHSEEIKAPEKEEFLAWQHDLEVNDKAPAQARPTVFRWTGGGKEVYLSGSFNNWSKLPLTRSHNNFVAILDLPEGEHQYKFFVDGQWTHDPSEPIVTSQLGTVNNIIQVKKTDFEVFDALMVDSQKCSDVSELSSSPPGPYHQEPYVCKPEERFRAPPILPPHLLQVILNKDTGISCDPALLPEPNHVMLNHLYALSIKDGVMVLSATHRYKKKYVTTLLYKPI
UniProt P07948: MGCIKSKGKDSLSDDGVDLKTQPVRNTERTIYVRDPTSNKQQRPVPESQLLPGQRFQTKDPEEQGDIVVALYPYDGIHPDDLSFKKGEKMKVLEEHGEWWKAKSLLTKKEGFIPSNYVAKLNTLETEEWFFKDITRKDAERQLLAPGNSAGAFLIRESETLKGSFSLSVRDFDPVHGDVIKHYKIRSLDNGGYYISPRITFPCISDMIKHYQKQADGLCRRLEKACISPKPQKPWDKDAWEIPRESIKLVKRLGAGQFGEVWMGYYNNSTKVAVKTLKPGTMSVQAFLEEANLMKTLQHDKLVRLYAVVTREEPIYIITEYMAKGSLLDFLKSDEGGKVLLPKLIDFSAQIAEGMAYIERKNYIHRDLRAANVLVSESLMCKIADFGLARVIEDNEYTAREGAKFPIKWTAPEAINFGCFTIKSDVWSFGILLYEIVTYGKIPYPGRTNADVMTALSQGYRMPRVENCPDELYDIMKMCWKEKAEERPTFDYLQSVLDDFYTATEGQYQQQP
UniProt P36888, whole entry: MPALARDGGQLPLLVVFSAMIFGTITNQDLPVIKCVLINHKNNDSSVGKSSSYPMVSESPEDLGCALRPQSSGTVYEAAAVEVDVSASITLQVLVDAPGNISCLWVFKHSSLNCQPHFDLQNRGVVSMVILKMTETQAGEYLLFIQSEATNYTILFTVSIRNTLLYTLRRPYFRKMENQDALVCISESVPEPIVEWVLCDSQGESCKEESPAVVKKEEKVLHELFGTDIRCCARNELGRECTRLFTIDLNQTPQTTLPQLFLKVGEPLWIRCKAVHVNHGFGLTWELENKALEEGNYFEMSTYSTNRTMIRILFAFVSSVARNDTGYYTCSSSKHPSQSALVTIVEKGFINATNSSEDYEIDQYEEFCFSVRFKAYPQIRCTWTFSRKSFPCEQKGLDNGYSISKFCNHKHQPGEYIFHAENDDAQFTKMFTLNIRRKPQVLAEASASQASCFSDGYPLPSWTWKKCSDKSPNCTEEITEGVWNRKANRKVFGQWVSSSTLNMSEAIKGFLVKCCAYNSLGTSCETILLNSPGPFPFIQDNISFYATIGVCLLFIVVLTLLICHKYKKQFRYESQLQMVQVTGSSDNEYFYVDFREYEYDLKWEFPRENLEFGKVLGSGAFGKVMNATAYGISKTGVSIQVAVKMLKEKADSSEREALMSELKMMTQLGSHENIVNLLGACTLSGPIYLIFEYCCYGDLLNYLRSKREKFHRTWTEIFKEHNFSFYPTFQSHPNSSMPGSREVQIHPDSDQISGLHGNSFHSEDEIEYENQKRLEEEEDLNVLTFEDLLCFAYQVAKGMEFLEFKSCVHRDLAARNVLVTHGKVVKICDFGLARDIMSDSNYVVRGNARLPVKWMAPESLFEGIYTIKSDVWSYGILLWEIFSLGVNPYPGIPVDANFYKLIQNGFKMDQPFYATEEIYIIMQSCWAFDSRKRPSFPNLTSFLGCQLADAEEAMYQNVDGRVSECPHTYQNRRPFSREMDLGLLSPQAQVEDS

Tests used:
[1] = biological target: Serine/threonine-protein kinase mTOR (Homo sapiens, UniProt P42345); assay: Inhibition of human mTOR at 10 uM relative to control
[2] = biological target: T1, NUAK family SNF1-like kinase 1 (Homo sapiens) (UniProt O60285); assay: Inhibition of human ARK5 at 10 uM relative to control
T1 sequence (whole entry): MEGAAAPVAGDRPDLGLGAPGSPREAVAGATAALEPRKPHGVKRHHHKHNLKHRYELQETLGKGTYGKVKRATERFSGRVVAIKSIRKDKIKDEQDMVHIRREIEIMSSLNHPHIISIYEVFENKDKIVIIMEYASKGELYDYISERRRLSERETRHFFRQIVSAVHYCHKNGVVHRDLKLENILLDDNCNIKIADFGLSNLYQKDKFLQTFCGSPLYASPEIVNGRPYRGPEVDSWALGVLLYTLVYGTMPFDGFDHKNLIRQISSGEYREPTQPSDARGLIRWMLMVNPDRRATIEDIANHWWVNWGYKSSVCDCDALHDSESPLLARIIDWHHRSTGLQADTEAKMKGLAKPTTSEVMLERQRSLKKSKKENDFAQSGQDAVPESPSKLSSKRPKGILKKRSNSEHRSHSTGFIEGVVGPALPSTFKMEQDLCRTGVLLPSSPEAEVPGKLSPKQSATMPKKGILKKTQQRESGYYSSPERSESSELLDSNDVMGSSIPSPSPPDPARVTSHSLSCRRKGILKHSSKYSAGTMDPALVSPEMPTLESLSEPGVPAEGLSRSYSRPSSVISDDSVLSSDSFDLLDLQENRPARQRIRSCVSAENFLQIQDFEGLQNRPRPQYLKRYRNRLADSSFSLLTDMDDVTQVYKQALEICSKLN

[3] = biological target: Tyrosine-protein kinase Lck (Homo sapiens, UniProt P06239); assay: Inhibition of human LCK at 10 uM relative to control
[4] = biological target: Tyrosine-protein kinase BTK (Homo sapiens, UniProt Q06187); assay: Inhibition of human BTK at 10 uM relative to control
[5] = biological target: T2, Serine/threonine-protein kinase BRSK2 (Homo sapiens) (UniProt Q8IWQ3); assay: Inhibition of human BRSK2 at 10 uM relative to control
T2 sequence (whole entry): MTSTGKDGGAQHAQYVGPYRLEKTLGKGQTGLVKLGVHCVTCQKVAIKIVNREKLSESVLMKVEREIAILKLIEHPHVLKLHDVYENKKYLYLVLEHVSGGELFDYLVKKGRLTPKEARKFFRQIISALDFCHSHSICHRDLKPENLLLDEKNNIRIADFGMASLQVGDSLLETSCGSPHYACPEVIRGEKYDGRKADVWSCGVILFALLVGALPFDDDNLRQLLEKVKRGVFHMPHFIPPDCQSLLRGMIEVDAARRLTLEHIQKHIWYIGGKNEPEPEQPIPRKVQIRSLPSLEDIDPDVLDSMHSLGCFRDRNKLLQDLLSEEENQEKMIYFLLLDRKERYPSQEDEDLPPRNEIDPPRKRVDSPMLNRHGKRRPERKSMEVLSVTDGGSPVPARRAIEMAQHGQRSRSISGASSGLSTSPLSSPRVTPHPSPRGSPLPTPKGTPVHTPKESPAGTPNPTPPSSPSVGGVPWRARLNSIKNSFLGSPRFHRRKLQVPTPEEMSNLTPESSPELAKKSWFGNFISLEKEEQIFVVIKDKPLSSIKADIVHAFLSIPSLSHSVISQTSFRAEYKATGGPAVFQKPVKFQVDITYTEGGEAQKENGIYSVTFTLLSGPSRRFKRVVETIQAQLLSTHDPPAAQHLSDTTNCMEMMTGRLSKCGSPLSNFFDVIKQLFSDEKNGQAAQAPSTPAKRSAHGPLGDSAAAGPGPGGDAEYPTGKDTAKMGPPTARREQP

[6] = biological target: Interleukin-1 receptor-associated kinase 4 (Homo sapiens, UniProt Q9NWZ3); assay: Inhibition of human IRAK4 at 10 uM relative to control
Aurora kinase B = Aurora kinase B (Homo sapiens, UniProt Q96GD4); assay: Inhibition of human Aurora B at 10 uM relative to control
[7] = biological target: Tyrosine-protein kinase JAK1 (Homo sapiens, UniProt P23458); assay: Inhibition of human JAK1 at 10 uM relative to control
[8] = biological target: Cyclin-dependent kinase 2 (Homo sapiens, UniProt P24941); assay: Inhibition of human CDK2 at 10 uM relative to control
[9] = biological target: AMPK alpha2/beta1/gamma1 (Homo sapiens) (UniProt P54646+P54619+Q9Y478); assay: Inhibition of human AMPK alpha2/beta1/gamma1 at 10 uM relative to control; assay type: protein-complex assay
[10] = biological target: Tyrosine-protein kinase Lyn (Homo sapiens, UniProt P07948); assay: Inhibition of human LYN at 10 uM relative to control
[11] = biological target: T3, Serine/threonine-protein kinase 17B (Homo sapiens) (UniProt O94768); assay: Inhibition of human DRAK2 at 10 uM relative to control
T3 sequence (whole entry): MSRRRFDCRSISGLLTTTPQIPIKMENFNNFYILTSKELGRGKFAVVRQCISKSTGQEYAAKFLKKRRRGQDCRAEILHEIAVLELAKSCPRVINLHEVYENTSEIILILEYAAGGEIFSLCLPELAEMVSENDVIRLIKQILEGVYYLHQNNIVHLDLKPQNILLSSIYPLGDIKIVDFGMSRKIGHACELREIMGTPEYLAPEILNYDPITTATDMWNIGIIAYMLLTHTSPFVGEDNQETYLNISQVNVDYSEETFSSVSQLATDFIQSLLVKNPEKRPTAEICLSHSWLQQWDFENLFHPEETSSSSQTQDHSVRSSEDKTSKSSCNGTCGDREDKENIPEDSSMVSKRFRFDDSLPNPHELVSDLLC

[12] = biological target: Receptor-type tyrosine-protein kinase FLT3 (Homo sapiens, UniProt P36888); assay: Inhibition of human FLT3 at 10 uM relative to control

Question: C[C@@H]1COCCN1c1nc(-c2ccnc3[nH]ccc23)nc2c1ccn2S(C)(=O)=O was tested. Which inhibition [1] did it give?
Answer: 97.4%

Question: And the inhibition [2]?
Answer: 82.5%

Question: What about the inhibition [3] of the same compound?
Answer: 72.4%

Question: And the inhibition [4]?
Answer: 33.6%

Question: And the inhibition [5]?
Answer: 23.5%

Question: And the inhibition [6]?
Answer: 20.7%

Question: And the inhibition (Aurora kinase B)?
Answer: 19.5%

Question: And the inhibition [7]?
Answer: 15.2%

Question: What about the inhibition [8] of the same compound?
Answer: 13.3%

Question: And the inhibition [9]?
Answer: 11.1%

Question: What about the inhibition [10] of the same compound?
Answer: 7.02%

Question: And the inhibition [11]?
Answer: 5.84%

Question: What about the inhibition [12] of the same compound?
Answer: 5.51%
